Experimental data reported in ChEMBL document CHEMBL1145407, “Structure-activity relationships of alpha-ketooxazole inhibitors of fatty acid amide hydrolase” (J Med Chem, 2007).

Key:
[1] = Selectivity for rat recombinant FAAH over TGH
[2] = Selectivity for rat recombinant FAAH over KIAA1363

O=C(CCc1ccc(Oc2ccccc2)cc1)c1ncc(-c2ccccn2)o1
Ratio IC50 [1]: 100 | Ratio IC50 [2]: > 50000
